Assay results from patent publication US10058550B2, “Methods of treating heart failure” (priority 2015, dated 2018).

Tested on: heart failure rat model
Experiment: Cardiac contractility in vivo in heart failure rat model (MI rat model)
Details: male Lewis rats, heart failure by ligation of left descending coronary artery, ejection fraction <35%; dosed acutely for 30 min
Experimental: Male Lewis rats (Charles River, USA) at 2-3 months of age were used for the study. […] APJ agonists were administered dose dependently acutely for a period of 30 min.

`COc1cccc(OC)c1-n1c(NS(=O)(=O)[C@@H](C)[C@H](O)c2ncc(C)cn2)nnc1-c1cncc(C)c1` [Example 371.0, (1R,2S)—N-(4-(2,6-dimethoxyphenyl)-5-(5-methylpyridin-3-yl)-4H-1,2,4-triazol-3-yl)-1-hydroxy-1-(5-methylpyrimidin-2-yl)propane-2-sulfonamide] was tested, and the “cardiac contractility as measured by dP/dtmax (derivative of left ventricular pressure)” value was “increase in cardiac contractility”.
